Results reported in PubChem BioAssay AID602267 (Broad Institute, 2012).
This is a selection; strong and weak results do not stand in their true shares. Activity calls are given as the source filed them.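 Rule for the calls: active = signal falls with dose and the fitted half-maximal concentration is at or below twice the top valid tested dose; inconclusive = flat curve with 30 to 70% inhibition, or poor fit; inactive = wrong direction, flat within 30%, or potency beyond limit.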

Target: Golgi-associated PDZ and coiled-coil motif-containing protein (Homo sapiens) (UniProt Q9HD26)
Assay: CAL PDZ domain peptide-binding inhibitors, dose response, biochemical, fluorescence polarization, untagged CAL PDZ, cherry-pick (AID 602267)
Conditions: purified CAL PDZ, TMR-peptide fluorescence polarization, 1 h; at 50 µM (top of the series)

## CC1CCNP(=O)(N(CCCl)CCCl)O1 (stereo unspecified)
  activity change, negative = inhibition: inactive
